Values of other authors in US12678402B2, “Treatment with powdered intranasal epinephrine” (Nasus Pharma Ltd., priority 2020, dated 2026).

- AUC0-120 min (0.3 mg IM, listed as IM epinephrine): 19.4 ng·min/mL
- AUC0-120 min (5 mg IN, listed as Epinephrine 5 mg IN): 19.4 ± 12.1 ng·min/mL
SMILES: CNC[C@H](O)c1ccc(O)c(O)c1 [Epinephrine]

Read-outs that look alike come from different tables or passages of the source.
